Data as given in PubChem BioAssay AID1832 (Broad Institute, 2009).
The list shows a part of the results, in another mix than the full data. The source made the active and inactive calls.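 The calls were made as follows: active = inhibition past about -25% in most replicates, and total fluorescence under double the plate's negative control median (limit read from the data); inconclusive = replicates evenly split on the limit, or fluorescence at least double controls; inactive = too little inhibition in most replicates.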

By UniProt entry, the sequences of proteins in these tests, tags left out. Where a name states a change or a piece, a line headed by the entry shows the natural chain unless it says otherwise.
UniProt Q9XUB2: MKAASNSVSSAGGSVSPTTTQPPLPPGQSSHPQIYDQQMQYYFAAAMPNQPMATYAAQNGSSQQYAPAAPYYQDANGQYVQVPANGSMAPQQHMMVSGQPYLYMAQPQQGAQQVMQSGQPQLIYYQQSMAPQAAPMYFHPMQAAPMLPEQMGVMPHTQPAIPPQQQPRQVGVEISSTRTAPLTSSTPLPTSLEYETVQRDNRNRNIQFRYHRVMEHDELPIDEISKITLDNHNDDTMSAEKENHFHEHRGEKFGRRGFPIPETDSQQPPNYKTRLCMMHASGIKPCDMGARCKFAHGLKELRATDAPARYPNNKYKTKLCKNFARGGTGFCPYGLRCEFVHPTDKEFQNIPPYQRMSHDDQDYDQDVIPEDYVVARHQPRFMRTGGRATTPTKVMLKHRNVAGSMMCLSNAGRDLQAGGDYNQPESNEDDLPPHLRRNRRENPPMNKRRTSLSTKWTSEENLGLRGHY

target: Zinc finger protein mex-5 (Caenorhabditis elegans) (UniProt Q9XUB2); assay: MEX-5 zinc finger RNA-binding disruptors – biochemical, C. elegans, fluorescence polarization, MLPCN library, primary screen (AID 1832); conditions: MEX-5/FITC-TCR2 RNA binding, at 10 µM, active compounds read low;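 also: 0% = DMSO and -100% = 5 µM competing unlabeled TCR2 RNA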

Compound	activity score (negative = inhibition of binding)
O=C(O)CNc1ccc([As](=O)(O)O)cc1	inactive: 0.89%
O=[N+]([O-])c1cccc(NC2=NCC(CBr)S2)c1 (stereo not given)	inactive: -2%
O=[N+]([O-])c1ncn(CCn2ncnc2[N+](=O)[O-])n1	inactive: -1.06%
CC(C)(C)C(=O)NC(Sc1ccncn1)C(Cl)(Cl)Cl (stereo not given)	inactive: 0.497%
O=C(Nc1cc([As](=O)(O)O)ccc1O)c1ccccc1	inactive: -14.7%
CC1CCN(C(=O)Oc2c(Cl)cc(Cl)c3cccnc23)CC1	inactive: -0.717%
CC(C)=N/N=C(\N)N[N+](=O)[O-]	inactive: 1.8%
CN(C)C(=O)OCCc1n(C)cc[n+]1C	inactive: -2.23%
CCN(/C(=N/P(=O)(N1CCOCC1)N1CCOCC1)N1CCOCC1)c1ccc(OC)cc1	inactive: 2.79%
Nc1ccc([As](=O)(O)c2ccc(N)cc2)cc1	inactive: 1.53%
C[N+]1=C2C=CC=CC=C2SC12C([N+](=O)[O-])=CC([N+](=O)[O-])=C[C-]2[N+](=O)[O-] (stereo not given)	inactive: -2.61%
Cc1ccc(NP(=O)(Oc2ccccc2)Oc2ccccc2)nc1	inactive: -1.17%
CCc1nc2c(n1)c1c(non1O)c1c2no[n+]1[O-]	inactive: -1.32%
O=[N+]([O-])c1cc([N+](=O)[O-])c(CCNc2ccccc2)c([N+](=O)[O-])c1	inactive: 0.418%
O=[N+]([O-])c1cccc2n[nH]nc12	inactive: -0.849%
CC(=O)N1C2C3N(C(C)=O)C1C1N(C(C)=O)C(C(N1C(C)=O)N3C(C)=O)N2C(C)=O	inactive: -0.288%
COc1ccc(C2=NCC(CBr)S2)cc1 (stereo not given)	inactive: 4.14%
Oc1ccccc1CNc1ccccn1	inactive: 1.1%
Cc1c2non([O-])c-2c(C)[n+](=O)[n+]1[O-]	inactive: -2.85%
O=C(NC(Sc1ccncn1)C(Cl)(Cl)Cl)c1ccccc1 (stereo not given)	inactive: 3.88%
CC(C)CC(=O)NC(Sc1ccc(Cl)cc1)C(Cl)(Cl)Cl (stereo not given)	inactive: 0.087%
Nc1cc(N)c2nonc2c1[N+](=O)[O-]	inactive: -1.01%

Compound	activity score (negative = inhibition of binding)
Clc1ccc(Cl)c(NC2=NCC(CBr)S2)c1 (stereo not given)	inactive: -0.418%
CN1CCCC(OC(=O)C(c2ccccc2)c2ccccc2)C1 (stereo not given)	inactive: -1.49%
COc1ccccc1OP(=O)(Nc1ccc(C)cn1)Oc1ccccc1OC	inactive: 0.881%
Cc1ccc(OP(=O)(Nc2nccs2)Oc2ccc(C)cc2)cc1	inactive: 1.75%
Cc1ccc(N/C(=N/P(=O)(N2CCOCC2)N2CCOCC2)N2CCOCC2)cc1	inactive: -1.24%
NC(=O)c1cc([N+](=O)[O-])cc([N+](=O)[O-])c1N	inactive: 1.98%
Nc1cccc2ccc([As](=O)(O)O)cc12	active: -50.5%
CCN(N=Nc1nonc1N)c1nonc1N	inactive: -2.83%
O=[N+]([O-])c1cc([N+](=O)[O-])c(CCN2CCOCC2)c([N+](=O)[O-])c1	inactive: -2.65%
CCOP(=O)(Nc1ccccc1)OCC	inactive: -1.12%
Cc1cc(SC(NC(=O)c2ccc(F)cc2)C(Cl)(Cl)Cl)ncn1 (stereo not given)	inactive: 1.17%
Cc1ccc(NP(=O)(Oc2ccccc2F)Oc2ccccc2F)nc1	inactive: -1.84%
CN(C(=O)Cc1ccc(Cl)c(Cl)c1)[C@H]1CCCC[C@@H]1N1CCCC1	inactive: 3.53%
O=P(Nc1nc2ccc(Cl)cc2s1)(c1ccccc1)c1ccccc1	inactive: -1.75%
O=C(O)c1ccccc1[As](=O)(O)O	inactive: 1.36%
CC(=O)Nc1ccc([As](=O)(O)O)cc1	inactive: 1.19%
Cc1ccccc1OP(=O)(Nc1ccccn1)Oc1ccccc1C	inactive: 1.3%
CN(C)C(=O)Oc1noc2ccccc12	inactive: 2.79%
O=C(OC1CN2CCC1CC2)c1ccccc1 (stereo not given)	inactive: 1.04%
CCC(=O)N1C2C3N(C(=O)CC)C1C1N(C(=O)CC)C(C(N1C(=O)CC)N3C(=O)CC)N2C(=O)CC	inactive: -3.88%
COC(=O)c1cc2c(s1)N=C(c1ccccc1)N(C)P2(=O)N1CCOCC1 (stereo not given)	inactive: -2.38%
CC(=O)NC(SC(=S)N(CC(C)C)CC(C)C)C(Cl)(Cl)Cl (stereo not given)	inactive: 0.828%

Compound	activity score (negative = inhibition of binding)
Cc1ccc(OP(=O)(Nc2ccccn2)Oc2ccc(C)cc2)cc1	inactive: 0.966%
c1ccc(-c2nn[nH]n2)c(-c2nn[nH]n2)c1	inactive: 4.92%
Cc1ccc(NP(=O)(Oc2cccc(C)c2)Oc2cccc(C)c2)nc1	inactive: -0.489%
CCOC(=O)NC(Sc1ccccc1)C(Cl)(Cl)Cl (stereo not given)	inactive: 0.976%
CCNC(=S)/N=C(\N)N[N+](=O)[O-]	inactive: -1.85%
O=C(NC1CCS(=O)(=O)C1)NP(=S)(Oc1ccccc1)Oc1ccccc1 (stereo not given)	inactive: 1.62%
CC(=O)Nc1ccc([As](=O)(O)O)c(O)c1	inactive: -2.45%
CC(=O)Nc1ccc(Oc2c([N+](=O)[O-])cc([N+](=O)[O-])cc2[N+](=O)[O-])cc1	inactive: -0.109%
C[C@@H]1C=CCP(=O)(Oc2ccccc2)O1 (stereo not given in full)	inactive: -1.73%
C[C@H]1OP(=O)(Oc2ccccc2)C[C@@H]2O[C@@H]21 (stereo not given in full)	inactive: 0.664%
CC(=O)c1ccc(N2CC2c2ccncc2)cc1 (stereo not given)	inactive: -0.289%
CC(C)(C)C(=O)NC(Sc1ccccc1)C(Cl)(Cl)Cl (stereo not given)	inactive: -0.176%
O=P1(Nc2nc3ccc(Cl)cc3s2)COc2ccccc2O1 (stereo not given)	inactive: -0.267%
CCOc1ccc(C2=NCC(CBr)S2)cc1 (stereo not given)	inactive: -0.196%
c1nnnn1CCn1cnnn1	inactive: -4.01%
CC(C)C(=O)NC(Sc1ccccc1)C(Cl)(Cl)Cl (stereo not given)	inactive: 1.99%
O=P(Nc1nccs1)(c1ccccc1)c1ccccc1	inactive: 1.13%
O=C(OC1CN2CCC1CC2)c1cccc(Cl)c1 (stereo not given)	inactive: 0.306%
Nc1ccc([As](=O)(O)c2ccc([N+](=O)[O-])cc2)cc1	inactive: -1.37%
C(Cc1nn[nH]n1)Cc1nn[nH]n1	inactive: -0.784%
O=[As](O)(c1ccccc1)c1ccc(O)cc1	inactive: 1.69%
